Measured values published in patent publication US6008258A, “d-methadone, a nonopioid analegesic” (priority 1998, dated 1999).

Assays:
NMDA receptors = details: Gorman et al.; cited from earlier work
[1] = target: NMDA receptor (noncompetitive MK-801 site), rat spinal cord; test: [3H]MK-801 displacement, rat spinal cord synaptic membranes; format: binding; details: read-out: [3H]MK-801 Ki, spinal cord; mean ± SEM, 2 to 4 observations; CNS region spinal cord

Structure (SMILES)	binding to NMDA receptors (NMDA receptors)	Ki [1] [nM]
CN1CC[C@]23c4c5ccc(O)c4O[C@H]2C(=O)CC[C@H]3[C@H]1C5 [Hydromorphone]	do not bind to NMDA receptors	–
COc1ccc2c(c1)[C@]13CCCC[C@@H]1[C@H](C2)N(C)CC3 [Dextromethorphan]	–	800 ± 600
